The list shows a part of the results, in another mix than the full data. The source made the active and inactive calls. Cut-off read from the data, not from the text of the source: active = activation mostly above about 9.5% (no sharp cut-off); inactive = mostly below about 7.6%.
The compounds below were run against 5-hydroxytryptamine receptor 5A (Homo sapiens) (UniProt P47898) (assay: activation of human 5-HT5A receptor – cell-based, luminescence, full-deck HTS, counter-screen for OPRM1-OPRD1 heterodimer agonist project, primary screen (AID 504692;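 note: 0% = cells with vehicle only and 100% = reference agonist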)). Settings: HTR5A agonist assay, at 9.3 µM, stronger effect = higher value.

Protein sequences, listed by entry. Tags and fused reporters are not part of them.
UniProt P47898, whole entry, looked up: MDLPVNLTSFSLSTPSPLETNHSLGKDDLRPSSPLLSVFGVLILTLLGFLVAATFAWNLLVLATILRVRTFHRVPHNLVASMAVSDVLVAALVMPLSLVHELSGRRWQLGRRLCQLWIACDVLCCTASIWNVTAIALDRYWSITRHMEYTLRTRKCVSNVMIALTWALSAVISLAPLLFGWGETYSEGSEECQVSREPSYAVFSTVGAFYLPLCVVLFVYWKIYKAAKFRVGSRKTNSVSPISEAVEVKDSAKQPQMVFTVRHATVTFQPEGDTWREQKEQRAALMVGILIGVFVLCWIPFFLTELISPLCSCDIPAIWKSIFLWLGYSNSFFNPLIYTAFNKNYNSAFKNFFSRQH

Row | SMILES | activation
1 | COc1ccc(CNC(=O)Cn2cnc3c(SC)nc(N)nc32)cc1 | inactive: 2.17%
2 | O=C(Cn1c(C(F)(F)F)nc2ccccc21)Nc1ccccc1C(=O)O | inactive: -3.74%
3 | CN(C)CCn1c(NC(=O)c2ccc(Cl)cc2)nc2ccccc21 | inactive: 5.64%
4 | COc1ccc(OCC(O)Cn2c(=N)n(CCN3CCOCC3)c3ccccc32)cc1 (stereo unspecified) | inactive: 1.05%
5 | Cc1cc(C)cc(NC(=O)Cn2c(-c3ccccc3Cl)nc3ccccc32)c1 | inactive: 1%
6 | O=C(NCCn1c(C(F)(F)F)nc2cc(C(F)(F)F)ccc21)[C@H]1CCCN1c1nc(CN2CCCCC2)cs1 | inactive: 6.27%
7 | C[C@H](O)[C@@H]1C(=O)N2CCc3ccc(N4CCOCC4)cc3[C@@H]2C[C@@H]1N(C)C(=O)C(C)(C)C | inactive: -3.22%
8 | Cn1c(=O)c2c(ncn2CC(=O)Nc2nnc(Cc3ccccc3)s2)n(C)c1=O | inactive: -1.33%
9 | CCCC(=O)Nc1nnc(/C=C/c2ccccc2)s1 | inactive: 1.86%
10 | Cn1c(=O)c2ncn(CC(=O)Nc3cc(C(F)(F)F)ccc3N3CCOCC3)c2n(C)c1=O | inactive: -3.52%
11 | CC(C)(C)C(=O)NC(Sc1ncccn1)C(Cl)(Cl)Cl (stereo unspecified) | inactive: 5.08%
12 | S=C(Nc1ccccc1)N1CCn2c(nc3ccccc32)C1 | inactive: 0.79%
13 | Brc1cccc(CNc2nc3ccccc3n2CCN2CCOCC2)c1 | inactive: 2.18%
14 | Cc1ccc(CNC(=O)CCCCCNC(=O)N2CCn3c2nc2ccccc23)cc1 | inactive: 0.61%
15 | CCOCCn1c(=O)c2c(nc3n2CCN3c2ccc(CC)cc2)n(C)c1=O | inactive: 3.92%
16 | COc1cc(Cl)c(C)cc1NC(=O)Cn1c(NCCO)nc2ccccc21 | inactive: 4.92%
17 | Cc1cc(N2C(=O)CC(N3CCC(n4c(=O)[nH]c5ccccc54)CC3)C2=O)no1 (stereo unspecified) | inactive: 3.21%
18 | CC(C)NC(=O)Cn1c(SCC(=O)N2CCc3ccccc3C2)nc2ccccc21 | inactive: -0.1%
19 | Cc1ccc2c(c1)C1CN(C)CCC1N2C(=S)Nc1cccnc1 (stereo unspecified) | inactive: -0.06%
20 | FC(F)(F)c1cccc(-n2nnnc2C2(N3CCOCC3)CCCCC2)c1 | inactive: -0.94%
21 | N#CCC(=O)N/N=C\c1ccc(OC/C=C/c2ccccc2)cc1 | inactive: 0.8%
22 | CN1CCC2(CC1)Nc1nc(SCc3ccc(Cl)cc3)nn1C1=C2CN(C)CC1 | inactive: 3.22%
23 | Cc1ccc(SCc2nc3ccccc3n2CC(=O)Nc2ccc(Cl)cc2)cc1 | inactive: 3.69%

Row | SMILES | activation
24 | CCN(CC)C(=O)N1CCn2c(nc3ccccc32)C1 | inactive: 9.48%
25 | O=P1(Nc2ncccn2)COc2ccccc2OC1 | inactive: 0.07%
26 | Cn1c(=O)[nH]c(=O)c2c1nc(N1CCOCC1)n2CCN1CCOCC1 | inactive: -0.19%
27 | Cc1ccc2c(c1)C1CN(C)CCC1N2C(=O)c1ccc(Br)o1 (stereo unspecified) | inactive: 0.61%
28 | COC(=O)CSc1nc2ccccc2n1CC(=O)N(C(C)C)C(C)C | inactive: 1.32%
29 | Cc1ccc2c(c1)C1CN(C)CCC1N2C(=O)/C(C#N)=C/c1ccc2c(c1)OCO2 (stereo unspecified) | inactive: 3.05%
30 | CN(C)CCn1cnc2c1c(=O)[nH]c(=O)n2Cc1ccccc1 | inactive: 4.52%
31 | N=c1n(CCN2CCOCC2)c2ccccc2n1Cc1ccccc1Br | inactive: 0.07%
32 | CCc1ccccc1NC(=O)CSc1nc2ccccc2n1CC(=O)N(C)C | inactive: 1.93%
33 | O=C(Cn1cnc2ccccc21)N/N=C/c1cccs1 | inactive: -0.47%
34 | O=S(=O)(Nc1ccc2c(c1)nc1n2CCN(Cc2ccccc2)C1)c1ccc(Cl)cc1 | active: 11.1%
35 | CC(C)N(C(=O)Cn1c(SCC(=O)NCc2ccc3c(c2)OCO3)nc2ccccc21)C(C)C | inactive: -6.14%
36 | O=C1CC(N2CCC(n3c(=O)[nH]c4ccccc43)CC2)C(=O)N1c1ccc(F)cc1 (stereo unspecified) | inactive: 1.78%
37 | CC(c1ccccc1)N1CCn2c(nc3cc(NC(=O)c4cccs4)ccc32)C1 (stereo unspecified) | inactive: 9.41%
38 | Cc1ccc(OCC(=O)OC2CN3CCC2CC3)cc1 (stereo unspecified) | active: 8.81%
39 | C[C@H](O)[C@@H]1C(=O)N2CCc3ccc(N4CCN(C)CC4)cc3[C@@H]2C[C@@H]1N(C)C(=O)Nc1cc(Cl)cc(Cl)c1 | inactive: -3.2%
40 | Cc1ccc(C(=O)N(C)c2ccc(OCC(=O)N3c4ccc(C)cc4C4CN(C)CCC43)cc2)cc1 (stereo unspecified) | inactive: -2.81%
41 | CCc1ccccc1NC(=O)CSc1nc2ccccc2n1CC(=O)N1CCCC1 | inactive: -1.81%
42 | O=[As](O)(c1cccs1)c1cccs1 | inactive: 6.46%
43 | NC(=O)Cn1c(S(=O)(=O)Cc2ccccc2)nc2ccccc21 | inactive: -0.91%
44 | CCC(=O)N1CCn2c1nc1ccccc12 | inactive: 6.94%
45 | O=C(NCCn1c(-c2ccncc2)nc2ccccc21)[C@H]1CCCN1c1nc(CN2CCCCC2)cs1 | inactive: -2.26%
46 | Cc1cc(NC(=O)Cn2cnc3c2c(=O)n(C)c(=O)n3C)n(-c2ccccc2)n1 | inactive: 0.86%

Source: PubChem BioAssay AID504692 (The Scripps Research Institute Molecular Screening Center, 2011)
